Test results: paper PMC11241722

Protein sequences, listed by entry. Tags and fused reporters are not part of them. Residues count along the entry.
UniProt P23229, 24-1130, chain 1 of 2: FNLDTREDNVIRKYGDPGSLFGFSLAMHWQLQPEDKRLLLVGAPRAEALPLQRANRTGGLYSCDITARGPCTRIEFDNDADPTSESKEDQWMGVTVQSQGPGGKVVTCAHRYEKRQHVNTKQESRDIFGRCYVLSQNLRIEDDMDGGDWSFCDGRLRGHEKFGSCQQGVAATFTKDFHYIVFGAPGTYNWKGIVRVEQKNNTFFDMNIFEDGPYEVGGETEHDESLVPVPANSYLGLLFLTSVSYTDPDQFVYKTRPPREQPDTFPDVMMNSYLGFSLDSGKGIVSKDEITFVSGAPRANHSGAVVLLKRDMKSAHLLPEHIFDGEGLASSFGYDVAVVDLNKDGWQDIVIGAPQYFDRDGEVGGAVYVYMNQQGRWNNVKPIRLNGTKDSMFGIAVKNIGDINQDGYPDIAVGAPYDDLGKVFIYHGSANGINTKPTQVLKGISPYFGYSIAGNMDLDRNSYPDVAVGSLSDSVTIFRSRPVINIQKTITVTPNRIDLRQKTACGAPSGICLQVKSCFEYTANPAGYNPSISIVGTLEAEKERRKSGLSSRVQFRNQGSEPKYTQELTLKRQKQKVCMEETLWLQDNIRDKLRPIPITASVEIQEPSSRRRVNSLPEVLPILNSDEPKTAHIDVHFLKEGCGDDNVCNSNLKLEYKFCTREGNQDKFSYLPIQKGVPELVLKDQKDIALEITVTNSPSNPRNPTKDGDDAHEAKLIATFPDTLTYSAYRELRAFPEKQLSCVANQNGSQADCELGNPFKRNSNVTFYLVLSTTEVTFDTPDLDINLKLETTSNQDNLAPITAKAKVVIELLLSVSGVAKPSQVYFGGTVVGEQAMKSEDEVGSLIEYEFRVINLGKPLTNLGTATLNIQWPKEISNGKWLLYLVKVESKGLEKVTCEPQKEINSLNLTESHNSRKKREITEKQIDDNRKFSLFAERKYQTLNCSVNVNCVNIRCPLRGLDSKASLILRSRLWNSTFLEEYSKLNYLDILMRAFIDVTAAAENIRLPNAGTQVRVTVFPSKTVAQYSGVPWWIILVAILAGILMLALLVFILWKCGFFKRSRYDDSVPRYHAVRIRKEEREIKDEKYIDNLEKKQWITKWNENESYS

Target: Recombinant Human Integrin α6β1 protein (Flag & His Tag) (human) (UniProt P23229)
Assay: MST; 50 nM RED-tris-NTA-labelled His-tagged Integrin α6β1 mixed 1:1 (10 μL + 10 μL) with serially diluted unlabelled Netrin-1 (0.03 pM to 1.2 μM, 16 tubes); PBS with 0.05% Tween-20; 10 min at room temperature; Monolith NT.115; Kd fit model; three independent dilution series

Kd: 19.9 µM
Substance: Recombinant Human Netrin-1 protein (from UniProt O95631 25-604) (ligand)
